# Assays:
# Amino acid sequences for entries named in this document (tags omitted). A change or cut given only in a name is not applied to a line headed by its entry.
# UniProt P54762: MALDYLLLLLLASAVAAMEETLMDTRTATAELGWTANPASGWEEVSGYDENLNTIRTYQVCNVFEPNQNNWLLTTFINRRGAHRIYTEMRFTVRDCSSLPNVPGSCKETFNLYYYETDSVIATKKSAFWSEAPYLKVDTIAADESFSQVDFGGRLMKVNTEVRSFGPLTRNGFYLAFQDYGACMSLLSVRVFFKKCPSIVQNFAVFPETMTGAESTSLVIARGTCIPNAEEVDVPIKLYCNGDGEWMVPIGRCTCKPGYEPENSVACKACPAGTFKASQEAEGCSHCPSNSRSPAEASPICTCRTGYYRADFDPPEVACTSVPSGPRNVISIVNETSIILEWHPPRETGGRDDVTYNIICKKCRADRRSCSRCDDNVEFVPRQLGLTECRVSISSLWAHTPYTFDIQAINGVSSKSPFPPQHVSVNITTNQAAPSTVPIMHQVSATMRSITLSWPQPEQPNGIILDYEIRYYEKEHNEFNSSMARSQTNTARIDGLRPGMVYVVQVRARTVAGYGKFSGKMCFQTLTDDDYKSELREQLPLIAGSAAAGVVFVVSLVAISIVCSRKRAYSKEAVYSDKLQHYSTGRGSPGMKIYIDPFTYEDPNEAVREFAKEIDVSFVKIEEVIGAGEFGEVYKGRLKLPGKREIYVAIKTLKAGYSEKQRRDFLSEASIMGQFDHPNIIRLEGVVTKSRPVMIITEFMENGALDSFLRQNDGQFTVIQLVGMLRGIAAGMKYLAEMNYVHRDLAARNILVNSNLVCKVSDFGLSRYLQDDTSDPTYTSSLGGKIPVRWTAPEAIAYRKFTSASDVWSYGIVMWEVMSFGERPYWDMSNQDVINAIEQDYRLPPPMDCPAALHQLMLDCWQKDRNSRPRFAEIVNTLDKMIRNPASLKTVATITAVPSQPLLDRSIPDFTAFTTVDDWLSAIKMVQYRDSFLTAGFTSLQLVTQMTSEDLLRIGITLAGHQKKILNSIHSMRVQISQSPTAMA
# UniProt P41240: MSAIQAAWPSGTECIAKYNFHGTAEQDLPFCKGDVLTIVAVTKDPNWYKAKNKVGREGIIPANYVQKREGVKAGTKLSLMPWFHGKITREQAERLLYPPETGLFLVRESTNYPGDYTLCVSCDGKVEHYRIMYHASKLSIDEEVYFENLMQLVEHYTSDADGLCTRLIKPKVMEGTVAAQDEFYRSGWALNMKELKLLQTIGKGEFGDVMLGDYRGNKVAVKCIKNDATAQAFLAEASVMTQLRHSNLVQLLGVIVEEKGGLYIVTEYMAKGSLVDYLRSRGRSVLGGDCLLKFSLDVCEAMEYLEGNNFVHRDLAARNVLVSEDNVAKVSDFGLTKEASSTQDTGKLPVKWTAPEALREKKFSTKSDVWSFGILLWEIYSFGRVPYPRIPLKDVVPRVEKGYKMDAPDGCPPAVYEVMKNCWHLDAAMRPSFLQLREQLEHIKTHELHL
# UniProt Q9UL54: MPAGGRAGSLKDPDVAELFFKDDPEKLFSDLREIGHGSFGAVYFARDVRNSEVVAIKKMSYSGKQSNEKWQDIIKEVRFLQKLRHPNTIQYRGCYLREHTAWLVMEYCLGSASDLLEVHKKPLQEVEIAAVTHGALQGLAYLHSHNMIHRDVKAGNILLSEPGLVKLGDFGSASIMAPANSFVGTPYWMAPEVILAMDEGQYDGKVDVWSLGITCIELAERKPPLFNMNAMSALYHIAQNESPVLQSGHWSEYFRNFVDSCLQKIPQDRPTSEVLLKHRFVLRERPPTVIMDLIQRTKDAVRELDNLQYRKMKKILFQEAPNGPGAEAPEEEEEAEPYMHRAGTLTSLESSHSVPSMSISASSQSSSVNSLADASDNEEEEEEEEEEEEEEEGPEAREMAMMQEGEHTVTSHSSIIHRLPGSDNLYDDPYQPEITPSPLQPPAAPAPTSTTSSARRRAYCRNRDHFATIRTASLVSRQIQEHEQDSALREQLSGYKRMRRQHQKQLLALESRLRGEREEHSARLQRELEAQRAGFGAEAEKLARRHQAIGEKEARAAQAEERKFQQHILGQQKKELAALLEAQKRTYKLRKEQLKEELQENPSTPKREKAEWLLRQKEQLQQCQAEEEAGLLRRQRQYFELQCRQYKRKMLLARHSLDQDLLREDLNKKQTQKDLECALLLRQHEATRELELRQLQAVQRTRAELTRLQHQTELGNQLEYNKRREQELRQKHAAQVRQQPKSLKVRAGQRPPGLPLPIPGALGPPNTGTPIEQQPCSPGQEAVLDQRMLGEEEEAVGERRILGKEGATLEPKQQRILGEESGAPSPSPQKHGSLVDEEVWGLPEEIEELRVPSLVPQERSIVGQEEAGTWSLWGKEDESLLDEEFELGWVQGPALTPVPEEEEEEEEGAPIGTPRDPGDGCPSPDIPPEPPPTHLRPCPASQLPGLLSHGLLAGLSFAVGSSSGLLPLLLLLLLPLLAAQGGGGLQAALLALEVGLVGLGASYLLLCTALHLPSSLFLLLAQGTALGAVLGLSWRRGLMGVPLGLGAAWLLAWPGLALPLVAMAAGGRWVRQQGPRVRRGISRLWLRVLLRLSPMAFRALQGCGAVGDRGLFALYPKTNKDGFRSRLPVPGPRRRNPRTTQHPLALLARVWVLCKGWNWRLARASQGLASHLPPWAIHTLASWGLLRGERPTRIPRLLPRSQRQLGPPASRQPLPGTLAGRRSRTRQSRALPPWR
# UniProt O75582, whole entry: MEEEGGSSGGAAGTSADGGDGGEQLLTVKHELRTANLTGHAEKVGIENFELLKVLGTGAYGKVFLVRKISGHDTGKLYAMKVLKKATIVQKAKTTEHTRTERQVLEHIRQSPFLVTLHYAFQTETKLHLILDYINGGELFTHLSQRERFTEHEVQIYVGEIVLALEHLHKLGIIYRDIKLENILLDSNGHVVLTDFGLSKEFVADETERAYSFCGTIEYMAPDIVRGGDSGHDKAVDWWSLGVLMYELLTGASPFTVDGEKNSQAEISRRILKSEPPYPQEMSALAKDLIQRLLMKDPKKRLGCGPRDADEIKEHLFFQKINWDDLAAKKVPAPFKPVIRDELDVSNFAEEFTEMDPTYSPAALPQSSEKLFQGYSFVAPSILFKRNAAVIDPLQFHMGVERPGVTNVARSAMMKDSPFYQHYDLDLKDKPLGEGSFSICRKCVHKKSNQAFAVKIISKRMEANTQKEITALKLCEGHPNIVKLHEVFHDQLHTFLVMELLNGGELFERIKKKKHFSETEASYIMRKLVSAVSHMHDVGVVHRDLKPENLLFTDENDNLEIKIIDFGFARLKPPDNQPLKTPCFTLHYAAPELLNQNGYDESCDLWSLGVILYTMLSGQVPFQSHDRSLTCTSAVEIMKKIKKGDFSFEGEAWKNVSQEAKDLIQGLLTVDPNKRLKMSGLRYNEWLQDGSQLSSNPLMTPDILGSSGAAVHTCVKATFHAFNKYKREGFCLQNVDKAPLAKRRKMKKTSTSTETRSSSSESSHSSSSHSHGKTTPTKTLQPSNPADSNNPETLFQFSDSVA
# UniProt P05771, whole entry: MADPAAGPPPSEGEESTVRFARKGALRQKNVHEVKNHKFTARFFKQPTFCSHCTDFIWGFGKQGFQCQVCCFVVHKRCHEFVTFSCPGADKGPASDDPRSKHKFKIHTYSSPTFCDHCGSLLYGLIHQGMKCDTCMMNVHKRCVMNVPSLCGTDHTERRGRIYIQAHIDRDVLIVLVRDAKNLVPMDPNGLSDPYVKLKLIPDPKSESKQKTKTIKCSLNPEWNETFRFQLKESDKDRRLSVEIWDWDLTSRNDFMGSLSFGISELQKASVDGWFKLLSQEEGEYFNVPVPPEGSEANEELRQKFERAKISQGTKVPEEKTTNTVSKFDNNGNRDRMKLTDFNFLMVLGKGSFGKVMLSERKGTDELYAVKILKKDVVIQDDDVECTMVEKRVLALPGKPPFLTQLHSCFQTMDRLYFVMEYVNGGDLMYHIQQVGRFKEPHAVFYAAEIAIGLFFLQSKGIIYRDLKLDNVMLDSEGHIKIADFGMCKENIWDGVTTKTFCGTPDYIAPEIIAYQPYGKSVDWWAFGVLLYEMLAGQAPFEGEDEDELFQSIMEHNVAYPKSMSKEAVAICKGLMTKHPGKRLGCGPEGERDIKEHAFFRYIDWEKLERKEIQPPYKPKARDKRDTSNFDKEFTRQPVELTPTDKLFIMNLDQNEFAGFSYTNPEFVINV
# UniProt Q8N5S9: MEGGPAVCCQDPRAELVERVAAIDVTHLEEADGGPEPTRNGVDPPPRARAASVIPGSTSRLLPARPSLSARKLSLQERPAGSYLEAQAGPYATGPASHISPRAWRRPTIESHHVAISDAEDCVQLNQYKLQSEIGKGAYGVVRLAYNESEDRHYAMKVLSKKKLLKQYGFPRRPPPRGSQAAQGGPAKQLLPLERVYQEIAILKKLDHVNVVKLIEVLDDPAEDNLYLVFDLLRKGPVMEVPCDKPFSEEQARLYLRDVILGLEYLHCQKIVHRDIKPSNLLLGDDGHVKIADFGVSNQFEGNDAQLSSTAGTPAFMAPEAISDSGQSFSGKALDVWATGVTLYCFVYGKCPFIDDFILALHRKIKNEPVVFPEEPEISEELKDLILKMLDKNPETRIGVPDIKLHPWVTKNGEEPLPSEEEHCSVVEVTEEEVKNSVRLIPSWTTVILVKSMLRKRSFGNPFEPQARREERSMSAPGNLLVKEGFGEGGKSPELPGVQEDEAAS
# UniProt P28482, whole entry: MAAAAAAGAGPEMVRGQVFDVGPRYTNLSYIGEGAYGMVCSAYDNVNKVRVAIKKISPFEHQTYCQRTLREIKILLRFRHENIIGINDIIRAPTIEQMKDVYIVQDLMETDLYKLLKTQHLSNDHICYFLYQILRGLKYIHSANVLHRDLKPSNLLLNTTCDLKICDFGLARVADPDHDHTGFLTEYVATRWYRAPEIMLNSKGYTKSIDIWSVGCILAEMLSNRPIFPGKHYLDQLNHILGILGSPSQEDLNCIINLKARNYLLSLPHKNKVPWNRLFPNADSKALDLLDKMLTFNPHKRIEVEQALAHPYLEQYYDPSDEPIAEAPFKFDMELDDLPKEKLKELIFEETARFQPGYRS
# UniProt Q9UPZ9: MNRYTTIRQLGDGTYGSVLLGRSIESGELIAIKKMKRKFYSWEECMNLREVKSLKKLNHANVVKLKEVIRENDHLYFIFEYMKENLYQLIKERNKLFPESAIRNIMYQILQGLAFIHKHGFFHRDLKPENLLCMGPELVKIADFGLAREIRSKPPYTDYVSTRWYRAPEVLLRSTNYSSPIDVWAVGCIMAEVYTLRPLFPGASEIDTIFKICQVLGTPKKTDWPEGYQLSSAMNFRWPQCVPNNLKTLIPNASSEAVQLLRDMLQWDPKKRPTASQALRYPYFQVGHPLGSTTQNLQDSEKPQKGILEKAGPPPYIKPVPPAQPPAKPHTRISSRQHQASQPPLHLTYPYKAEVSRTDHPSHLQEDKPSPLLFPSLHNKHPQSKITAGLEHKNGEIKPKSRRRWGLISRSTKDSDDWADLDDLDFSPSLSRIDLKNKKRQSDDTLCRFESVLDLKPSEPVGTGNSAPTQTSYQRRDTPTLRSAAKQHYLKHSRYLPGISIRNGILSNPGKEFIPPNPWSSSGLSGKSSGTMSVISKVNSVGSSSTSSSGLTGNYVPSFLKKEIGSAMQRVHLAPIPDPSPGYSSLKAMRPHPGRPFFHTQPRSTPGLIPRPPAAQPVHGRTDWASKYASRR
# UniProt Q02156: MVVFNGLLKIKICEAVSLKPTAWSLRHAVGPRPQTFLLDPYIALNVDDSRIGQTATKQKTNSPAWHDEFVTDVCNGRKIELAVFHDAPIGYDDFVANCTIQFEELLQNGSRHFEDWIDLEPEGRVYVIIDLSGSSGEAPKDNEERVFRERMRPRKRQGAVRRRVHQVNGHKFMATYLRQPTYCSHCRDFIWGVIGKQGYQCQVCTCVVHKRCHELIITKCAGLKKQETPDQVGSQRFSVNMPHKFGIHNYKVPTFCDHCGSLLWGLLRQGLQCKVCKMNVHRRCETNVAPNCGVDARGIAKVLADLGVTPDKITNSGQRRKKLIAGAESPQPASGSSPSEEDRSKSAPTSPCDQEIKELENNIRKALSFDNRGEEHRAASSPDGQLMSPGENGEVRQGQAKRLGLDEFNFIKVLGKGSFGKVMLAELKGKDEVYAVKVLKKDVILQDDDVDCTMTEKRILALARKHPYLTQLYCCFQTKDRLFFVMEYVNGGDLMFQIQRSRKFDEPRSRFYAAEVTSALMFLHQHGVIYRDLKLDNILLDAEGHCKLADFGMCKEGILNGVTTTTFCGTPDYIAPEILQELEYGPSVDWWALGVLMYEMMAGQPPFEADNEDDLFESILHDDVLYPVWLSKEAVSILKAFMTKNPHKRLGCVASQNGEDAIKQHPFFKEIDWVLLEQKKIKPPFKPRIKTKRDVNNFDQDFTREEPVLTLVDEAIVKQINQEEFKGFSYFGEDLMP
# [1] = system: MDA-MB-157; test: cells; conditions: Homo sapiens, MDA-MB-157, 120 h, read-out: eCF506 GI50 (in uM)
# [2] = system: KPL-4; test: cells; conditions: KPL4, 120 h, read-out: eCF506 GI50 (in uM)
# [3] = system: BT-549; test: cells; conditions: Homo sapiens, BT-549, 120 h, read-out: eCF506 GI50 (in uM)
# [4] = system: MCF-7; test: cells; conditions: Homo sapiens, MCF7, 120 h, read-out: eCF506 GI50 (in uM)
# [5] = system: HCC-1954; test: cells; conditions: Homo sapiens, HCC1954, 120 h, read-out: eCF506 GI50 (in uM)
# [6] = system: MDA-MB-436; test: cells; conditions: Homo sapiens, MDA-MB-436, 120 h, read-out: eCF506 GI50 (in uM)
# [7] = system: SUM44PE; test: cells; conditions: 120 h, read-out: eCF506 GI50 (in uM)
# [8] = system: MDA-MB-231; test: cells; conditions: Homo sapiens, MDA-MB-231, 120 h, read-out: eCF506 GI50 (in uM)
# [9] = system: BT-474; test: cells; conditions: Homo sapiens, BT-474, 120 h, read-out: eCF506 GI50 (in uM)
# [10] = system: JIMT-1; test: cells; conditions: Homo sapiens, JIMT-1, 120 h, read-out: eCF506 GI50 (in uM)
# [11] = system: ZR75.1; test: cells; conditions: Homo sapiens, ZR-75-1, 120 h, read-out: eCF506 GI50 (in uM)
# [12] = system: SKBR-3; test: cells; conditions: Homo sapiens, SK-BR-3, 120 h, read-out: eCF506 GI50 (in uM)
# [13] = system: CAMA-1; test: cells; conditions: Homo sapiens, CAMA-1, 120 h, read-out: eCF506 GI50 (in uM)
# [14] = system: T-47D; test: cells; conditions: Homo sapiens, T47D, 120 h, read-out: eCF506 GI50 (in uM)
# [15] = system: HCC-1569; test: cells; conditions: Homo sapiens, HCC1569, 120 h, read-out: eCF506 GI50 (in uM)
# [16] = molecular target: SRC (Homo sapiens, UniProt P12931); test: biochemical
# [17] = molecular target: EPHB1 (Homo sapiens, UniProt P54762); test: biochemical; conditions: read-out: % remaining activity
# [18] = molecular target: CSK (Homo sapiens, UniProt P41240); test: biochemical; conditions: read-out: % remaining activity
# [19] = molecular target: TAOK2 (Homo sapiens, UniProt Q9UL54); test: biochemical; conditions: read-out: % remaining activity
# [20] = molecular target: T1, ZAK (Homo sapiens, UniProt Q9NYL2); test: biochemical; conditions: read-out: % remaining activity
# T1 construct: gene MAP3K20
# [21] = molecular target: RPS6KA5 (Homo sapiens, UniProt O75582); test: biochemical; conditions: read-out: % remaining activity
# [22] = molecular target: T2, PKCb1 (Homo sapiens, UniProt P05771); test: biochemical; conditions: read-out: % remaining activity
# T2 construct: gene PRKCB
# [23] = molecular target: CAMKK1 (Homo sapiens, UniProt Q8N5S9); test: biochemical; conditions: read-out: % remaining activity
# [24] = molecular target: T3, ERK2 (Homo sapiens, UniProt P28482); test: biochemical; conditions: read-out: % remaining activity
# T3 construct: gene MAPK1
# [25] = molecular target: DYRK1A (Homo sapiens, UniProt Q13627); test: biochemical; conditions: read-out: % remaining activity
# [26] = molecular target: MARK4 (Homo sapiens, UniProt Q96L34); test: biochemical; conditions: read-out: % remaining activity
# [27] = molecular target: T4, LCK2 (Homo sapiens, UniProt Q9UPZ9); test: biochemical; conditions: read-out: % remaining activity
# T4 construct: gene CILK1
# [28] = molecular target: T5, PKCepsilon (Homo sapiens, UniProt Q02156); test: biochemical; conditions: read-out: % remaining activity
# T5 construct: gene PRKCE
# [29] = molecular target: T6, MST2 (Homo sapiens, UniProt Q13188); test: biochemical; conditions: read-out: % remaining activity
# T6 construct: gene STK3
# [30] = molecular target: T7, DCAMKL2 (Homo sapiens, UniProt Q8N568); test: biochemical; conditions: read-out: % remaining activity
# T7 construct: gene DCLK2
# [31] = molecular target: MET (Homo sapiens, UniProt P08581); test: biochemical; conditions: read-out: % remaining activity
# [32] = molecular target: WNK2 (Homo sapiens, UniProt Q9Y3S1); test: biochemical; conditions: read-out: % remaining activity
structure (smiles),measurement,setting,value
COc1cc(-c2nn(CCN3CCC(N(C)C)CC3)c3ncnc(N)c23)ccc1NC(=O)OC(C)(C)C [eCF506],GI50,[1],0.02 µM
same,GI50,[2],12.8 µM
same,GI50,[3],0.155 µM
same,GI50,[4],0.0147 µM
same,GI50,[5],1.79 µM
same,GI50,[6],27 µM
same,GI50,[7],50.8 µM
same,GI50,[8],0.016 µM
same,GI50,[9],2.99 µM
same,GI50,[10],0.222 µM
same,GI50,[11],0.0218 µM
same,GI50,[12],7.8 µM
same,GI50,[13],8.75 µM
same,GI50,[14],0.149 µM
same,GI50,[15],3.59 µM
same,IC50,[16],< 0.5 nM
same,remaining activity at 1 µM,[17],116%
same,remaining activity at 1 µM,[18],5%
same,remaining activity at 1 µM,[19],96.9%
same,remaining activity at 1 µM,[20],83.4%
same,remaining activity at 1 µM,[21],91.1%
same,remaining activity at 1 µM,[22],99.8%
same,remaining activity at 1 µM,[23],104%
same,remaining activity at 1 µM,[24],99.5%
same,remaining activity at 1 µM,[25],95.3%
same,remaining activity at 1 µM,[26],98.6%
same,remaining activity at 1 µM,[27],91.2%
same,remaining activity at 1 µM,[28],99.9%
same,remaining activity at 1 µM,[29],97.4%
same,remaining activity at 1 µM,[30],102%
same,remaining activity at 1 µM,[31],87.5%
same,remaining activity at 1 µM,[32],105%

# — publication PMC7611940, “A Conformation Selective Mode of Inhibiting SRC Improves Drug Efficacy and Tolerability” (Cancer Research, 2021)
